Experimental data taken from PMC5428881 (Chemical communications (Cambridge, England), 2011).

Key:
[1] = tested on: HeLa cells; conditions: cited from earlier work
[2] = tested on: HeLa cells; experiment: Cell permeability by fluorescence activated cell sorting; assay type: cell-based; conditions: FACS, 10 μM N-terminally fluorescein-conjugated peptide
[3] = CD measurement of percent helicity; assay type: physicochemical

PDI: peptide dual inhibitor of p53-Mdm2/Mdmx interactions, sequence LTFEHYWAQLTS
cell permeability (in words) [1]: cell impermeable
cell penetration relative to the DMSO control (in words) [2]: minimal cell penetration
percent helicity [3]: 11–13%
